In article doi:10.1101/2023.07.21.550003 (bioRxiv, 2023):
Like-named read-outs stand apart in the source and are kept apart here.

Legend:
[1] = target: T1, canonical HER2, extracellular region (residues 22-587) (human, UniProt P04626 22-587); test: ELISA
T1 chain: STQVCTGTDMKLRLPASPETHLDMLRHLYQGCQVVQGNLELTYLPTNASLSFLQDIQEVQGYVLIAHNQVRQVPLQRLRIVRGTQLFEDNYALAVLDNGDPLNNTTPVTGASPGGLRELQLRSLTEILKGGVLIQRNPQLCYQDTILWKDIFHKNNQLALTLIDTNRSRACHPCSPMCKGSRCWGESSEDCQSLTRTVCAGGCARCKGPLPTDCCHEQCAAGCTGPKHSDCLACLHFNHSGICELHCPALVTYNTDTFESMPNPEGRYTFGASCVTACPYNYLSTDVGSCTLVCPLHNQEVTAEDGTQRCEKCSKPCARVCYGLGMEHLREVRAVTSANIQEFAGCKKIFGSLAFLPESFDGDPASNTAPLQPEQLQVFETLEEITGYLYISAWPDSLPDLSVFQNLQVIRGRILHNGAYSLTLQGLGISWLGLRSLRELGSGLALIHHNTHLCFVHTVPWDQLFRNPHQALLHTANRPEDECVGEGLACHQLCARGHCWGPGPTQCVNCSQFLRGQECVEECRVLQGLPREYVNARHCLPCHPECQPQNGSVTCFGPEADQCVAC

[2] = target: T1, canonical HER2, extracellular region …; test: ELISA

B1: Pertuzumab IgG (antibody, V domains shown)
VH: EVQLVESGGGLVQPGGSLRLSCAASGFTFTDYTMDWVRQAPGKGLEWVADVNPNSGGSIYNQRFKGRFTLSVDRSKNTLYLQMNSLRAEDTAVYYCARNLGPSFYFDYWGQGTLVTVSS
VL: DIQMTQSPSSLSASVGDRVTITCKASQDVSIGVAWYQQKPGKAPKLLIYSASYRYTGVPSRFSGSGSGTDFTLTISSLQPEDFATYYCQQYYIYPYTFGQGTKVEIK
Kd [1]: 777 pM
Kd [2]: 817 pM
